Assay [1] relates to K562 human leukemia cells. Briefly: cells. The following applies: K562, 20 h, read-out: IC50 ± SD K562.
For assay [2], the system named is HCT15 cells, the drug resistant cell line of HCT116. The assay is described as follows: cells. Conditions: Homo sapiens, HCT-15, 72 h, read-out: IC50 HCT15.

These results are taken from publication PMC4154712 (Journal of medicinal chemistry, 2014).

Usually IC50 stands for the midpoint of a concentration-inhibition curve.

In the case of `COc1cc(C(=O)c2ccn(-c3cccc(NS(C)(=O)=O)c3)c2)cc(OC)c1OC` [Compound 28, N-(3-(3-(3,4,5-Trimethoxybenzoyl)-1H-pyrrol-1-yl)phenyl)-methanesulfonamide], the IC50 in assay [1] amounted to 19 ± 8 nM.
With `COc1cc(C(=O)c2ccn(-c3ccccc3)c2)cc(OC)c1OC` [Compound 4, (1-Phenyl-1H-pyrrol-3-yl)-(3,4,5-trimethoxyphenyl)methanone], the IC50 in assay [2] was found to be 39 ± 4 nM.
